Experimental data reported in ChEMBL document CHEMBL5726656, “N-(phenylsulfonyl)benzamides and related compounds as BCL-2 inhibitors” (2019).

Chains of the proteins cited; added tags and fusions are not shown.
UniProt P10415, whole entry: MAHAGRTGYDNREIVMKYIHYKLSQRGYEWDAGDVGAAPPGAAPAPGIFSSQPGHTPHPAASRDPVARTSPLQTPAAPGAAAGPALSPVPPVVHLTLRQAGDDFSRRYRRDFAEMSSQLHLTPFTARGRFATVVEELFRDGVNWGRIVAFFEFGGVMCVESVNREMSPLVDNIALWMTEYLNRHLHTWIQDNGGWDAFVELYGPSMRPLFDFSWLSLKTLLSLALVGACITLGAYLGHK

Molecular target: Apoptosis regulator Bcl-2 (Homo sapiens, UniProt P10415)
Assay: FP values were measured as described above.

SMILES | IC50 [nM]
O=C(NS(=O)(=O)c1ccc(NCC2COCCO2)c([N+](=O)[O-])c1)c1ccc(N2CCN(CC3=C(c4ccc(Cl)cc4)CC4(CC3)COC4)CC2)cc1Oc1cnc2[nH]ccc2c1 (configuration not stated) | 2.4
O=C(NS(=O)(=O)c1cc([N+](=O)[O-])c2cnn(C3CCOCC3)c2c1)c1ccc(N2CCN(CC3=C(c4ccc(Cl)cc4)CC4(CCC4)CC3)CC2)cc1Oc1cnc2[nH]ccc2c1 | 2.4
